## AlphaSeq binding of Ab-14 heavy chain variants to a spike HR2 peptide

Antigen: PDVDLGDISGINAS, a 14-residue peptide of the SARS-CoV-2 spike HR2 region.

The variants keep the light chain, the linker and the frameworks of Ab-14 (scFv order VH, a 15-residue (Gly4Ser)3 linker, VL).
VH: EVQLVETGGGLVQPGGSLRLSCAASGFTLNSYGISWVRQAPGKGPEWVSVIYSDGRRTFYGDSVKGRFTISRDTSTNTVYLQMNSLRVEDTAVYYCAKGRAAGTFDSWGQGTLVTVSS
VL: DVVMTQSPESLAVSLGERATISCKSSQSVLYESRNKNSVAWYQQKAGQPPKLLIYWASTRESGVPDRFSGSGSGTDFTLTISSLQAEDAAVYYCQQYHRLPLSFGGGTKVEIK

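Phage display of a naive human antibody library on the peptide gave the parent. The variants were designed computationally from a first round of random CDR variants and then made and measured. Their group label is 14H_GP_HC (GP: Gaussian process model; HC: hill climbing; a sequence that several methods proposed may carry one label only). Affinity was read by AlphaSeq, a pooled yeast mating assay with surface-displayed partners. Pairs that bind mate more often; barcode pairs of the diploids are counted by sequencing. A regression on co-assayed BCL2-family reference pairs converts the normalised counts of each replicate to an apparent Kd. Mating was done six times.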

Changes read parent residue, position, new residue, counted from the first residue of the VH shown. Numbers give log10(Kd / nM), so 0 is 1 nM and 3 is 1 µM. Smaller is tighter. "n.d." means that the variant was in the library but no mating with the target was seen in that replicate; the authors take this as a sign of poor binding, and no number exists. The range of this assay differs from that of the first round, and the authors advise against merging the two. Background: pairings of all heavy chain designs with three empty control strains gave a value in 1% of cases (median 2.08, 5th percentile 0.84). Values in that range, when seen in few replicates, are hard to tell from nonspecific mating. The control count says in how many pairings with the empty strains this scFv gave a signal, with their mean in brackets. The parent sequence was in this pool as ten entries: three were never detected, three once, and four in most replicates, with averages from 0.34 to 2.37. In the paper, a design with two or fewer of six values counts as a poor binder.

changes,log10 Kd (nM) by replicate,signal with controls
S31D A101C S107K,-0.26 / n.d. / n.d. / n.d. / n.d. / n.d.,0 of 18
T28S G61Q R100M A101L,0.47 / 0.71 / 1.46 / 1.00 / 1.04 / 0.87,0 of 18
T28Q S31K A101H,n.d. / n.d. / n.d. / n.d. / 2.52 / n.d.,0 of 18
T104S D106R S107T,n.d. / n.d. / n.d. / n.d. / n.d. / n.d.,0 of 18
N30E D106T S107D,n.d. / n.d. / n.d. / n.d. / n.d. / 2.08,4 of 18 (2.48)
T28S S31E G61A R100P S107R,n.d. / n.d. / n.d. / n.d. / n.d. / n.d.,1 of 18 (2.79)
T28V S31E G61D,1.54 / 4.39 / 1.38 / 0.68 / 1.15 / 0.91,1 of 18 (1.64)
T28S S31E S53A R100V,0.78 / 1.27 / 0.47 / 0.50 / 1.30 / 0.96,0 of 18
G61M R100Q A101L S107R,n.d. / 1.62 / n.d. / n.d. / n.d. / n.d.,0 of 18
G26L S31E G61K A101T,n.d. / 4.66 / 1.78 / n.d. / 2.08 / 1.81,1 of 18 (2.41)
G61D R100Q A101V,0.61 / 0.95 / 1.07 / 0.61 / 2.01 / 0.98,0 of 18
F27N S31E A101T,0.47 / 0.32 / 0.52 / 0.78 / 0.73 / 0.59,0 of 18
T28A G61T R100Q A101L,1.47 / 1.28 / 0.76 / 0.78 / 1.08 / 1.85,0 of 18
T28R N30E S31E S107Q,0.13 / 0.85 / 0.26 / 0.06 / 0.62 / 0.09,0 of 18
F59A G61S R100Q A101L,0.58 / -0.09 / -0.02 / -0.02 / 0.21 / -0.01,0 of 18
S31E G61C S63D A101T,0.44 / 0.19 / 0.43 / 0.35 / 0.33 / -0.07,1 of 18 (3.05)
T28E S53A G61V,0.11 / -0.21 / -0.29 / -0.21 / -0.36 / 0.05,0 of 18
S31D F59M A101N,1.48 / 0.35 / 0.74 / 0.41 / -0.18 / n.d.,0 of 18
T28E S31Q R56T G61S,0.33 / 0.50 / 0.43 / 0.39 / 0.49 / 0.53,1 of 18 (1.27)
S31E D106K S107I,n.d. / n.d. / n.d. / n.d. / n.d. / n.d.,0 of 18
T28Q G61I R100Q A101L,n.d. / n.d. / n.d. / n.d. / n.d. / n.d.,0 of 18
S31E G61H A101D,0.41 / 0.99 / 0.44 / 0.56 / 1.35 / 1.10,0 of 18
N30D G61T S107R,0.60 / n.d. / n.d. / -0.63 / 0.58 / n.d.,0 of 18
S31Q R56W G61S A101Q,1.14 / 0.19 / -0.13 / 1.37 / 1.25 / -0.15,0 of 18
S31D A101T D106T S107L,0.48 / 0.39 / 0.31 / 0.84 / 0.82 / 0.67,1 of 18 (3.01)
T28S S31W F59W G61I,n.d. / n.d. / n.d. / n.d. / n.d. / n.d.,0 of 18
F27E S53A G61I,1.20 / 0.41 / 0.48 / 0.25 / 0.64 / 0.69,0 of 18
S31E G61E S63D A101Q,0.34 / 0.66 / 0.36 / -0.07 / 0.52 / 1.06,0 of 18
T28R G61D A101L,n.d. / 1.74 / n.d. / n.d. / 1.44 / 1.60,0 of 18
T28Q S31E G61A A101D,0.99 / -0.16 / -0.14 / -0.48 / -0.51 / 0.64,0 of 18
S31E A101Q S107D,2.30 / 2.53 / 1.49 / 2.92 / 2.72 / 2.57,0 of 18
N30Q G61D R100K A101L,-0.61 / -0.63 / -0.76 / -0.97 / -0.76 / -0.53,0 of 18

Extract of 4 entries:

changes,log10 Kd (nM) by replicate,signal with controls
T28Q G61I R100Q A101L,n.d. / n.d. / n.d. / n.d. / n.d. / n.d.,0 of 18
S31E G61C S63D A101T,0.44 / 0.19 / 0.43 / 0.35 / 0.33 / -0.07,1 of 18 (3.05)
T28E S53A G61V,0.11 / -0.21 / -0.29 / -0.21 / -0.36 / 0.05,0 of 18
T28Q S31E G61A A101D,0.99 / -0.16 / -0.14 / -0.48 / -0.51 / 0.64,0 of 18

Source: Li et al. 2023 (doi:10.1038/s41467-023-39022-2), MIT Lincoln Laboratory and A-Alpha Bio; data file from the FLAb repository.